Measured values as given in publication PMC5013675, “Nucleotide binding by the widespread high-affinity cyclic di-GMP receptor MshEN domain” (Nature Communications, 2016).

By UniProt entry, the sequences of proteins in these tests, tags left out. Residues count along the entry.
UniProt Q9KUV7, 1-145 limits assumed: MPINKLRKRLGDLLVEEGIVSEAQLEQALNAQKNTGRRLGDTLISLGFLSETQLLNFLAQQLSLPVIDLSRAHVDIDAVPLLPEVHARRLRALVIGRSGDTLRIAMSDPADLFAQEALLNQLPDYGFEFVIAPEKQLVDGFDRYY

Target: VcMshEN1-145 (wild type) (Vibrio cholerae, UniProt Q9KUV7)
Test: biochemical
Format: binding

Q: What does the source list for `Nc1nc2c(ncn2[C@@H]2O[C@@H]3COP(=O)(O)O[C@H]4[C@@H](O)[C@H](n5cnc6c(N)ncnc65)O[C@@H]4COP(=O)(O)O[C@H]3[C@H]2O)c(=O)[nH]1` [cGAMP, (3′–5′)-cyclic AMP-GMP]?
A: Binding affinity, fold less than that with c-di-GMP: approximately 1000 fold; Kd: 330 µM
